How the values were obtained:
Assay type in all cases: cell-based
[1] = target: T1, RAMP2-CLR (AM1 receptor) (Homo sapiens, UniProt O60895+Q16602); test: (Ca^2+)i mobilization, HEK-293S cells, RAMP2 + CLR; conditions: mean ± S.E.
T1 construct: FLAG; expressed in transfected cells; host or cells: HEK-293 or HEK-293S cells, transient transfection, 1:1 RAMP:CLR
Description: (§1) HEK-293 cells were transfected with FuGENE 6 (Roche Applied Science) in accordance with the manufacturer's instructions using a 1:3 (w:v) DNA:FuGENE ratio and a 1:1 ratio of RAMP to CLR. […] The transfected cell lines were grown for 24–48 h prior to assaying.
(§2) Transfected HEK-293 cells were grown to confluence in black, clear bottomed, 96-well plates. […] Cells were then washed followed by the addition of 100 μl of Ca^2+-free Hanks' balanced salt solution. […] Recordings were obtained every 0.5 s for 120 s. Peak magnitude was calculated using five-point smoothing followed by correction against background fluorescence. The peak was used to generate concentration-response curves and normalized relative to 10 μM ionomycin.
(§3) Data analysis for cAMP assays was performed in GraphPad Prism 6.0f (San Diego, CA). […] These values were then used to quantify signaling bias as change in log (τ/Ka) relative to the natural cognate ligand for the respective receptor ([41]). […] Statistical differences were analyzed using one-way ANOVA or Student's t test as appropriate with post hoc Bonferroni's or Dunnett's multiple comparisons, and p < 0.05 was considered significant. […] To quantitate the ligand-dependent response in the yeast system, a strain lacking GPA1 (MMY11), grown in rich medium, was used as a standard ([72]). […]

Amino acid sequences for entries named in this document (tags omitted). Residues count along the entry.
UniProt O60895, 43-175: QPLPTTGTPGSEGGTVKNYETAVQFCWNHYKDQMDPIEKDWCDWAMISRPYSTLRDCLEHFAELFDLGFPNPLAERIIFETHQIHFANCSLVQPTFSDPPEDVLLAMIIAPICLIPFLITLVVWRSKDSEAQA
UniProt Q16602, 23-461: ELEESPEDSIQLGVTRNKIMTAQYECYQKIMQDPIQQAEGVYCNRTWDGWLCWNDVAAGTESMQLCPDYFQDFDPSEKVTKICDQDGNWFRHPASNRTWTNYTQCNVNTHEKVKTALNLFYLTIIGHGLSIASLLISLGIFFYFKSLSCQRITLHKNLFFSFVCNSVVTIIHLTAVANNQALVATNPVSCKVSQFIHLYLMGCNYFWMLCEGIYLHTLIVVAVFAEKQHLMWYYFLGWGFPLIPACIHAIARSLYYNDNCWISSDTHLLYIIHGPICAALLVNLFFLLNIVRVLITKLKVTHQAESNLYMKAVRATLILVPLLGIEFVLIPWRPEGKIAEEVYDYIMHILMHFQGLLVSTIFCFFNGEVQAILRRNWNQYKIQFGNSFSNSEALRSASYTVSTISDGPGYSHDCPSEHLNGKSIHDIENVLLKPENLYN
UniProt O60894, 27-148: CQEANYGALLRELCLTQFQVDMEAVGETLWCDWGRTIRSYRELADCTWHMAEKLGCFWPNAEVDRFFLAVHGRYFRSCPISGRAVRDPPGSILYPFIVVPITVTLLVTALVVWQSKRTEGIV

[2] = target: T1, RAMP2-CLR (AM1 receptor); test: cAMP accumulation, HEK-293S cells, RAMP2 + CLR
Description: as §1
The transfected HEK-293 cells were washed in PBS, resuspended in stimulation buffer (PBS containing 0.1% BSA and 0.5 mM IBMX), and seeded at 2000 cells/well in 384-well white Optiplates. Ligands were added in the range of 1 pM to 1 mM, and cAMP accumulation was measured after 30 min of stimulation using a LANCE® cAMP detection kit (PerkinElmer Life Sciences). […] Plates were read using a Mithras LB 940 multimode microplate reader (Berthold Technologies). […] Values were converted to concentration using a cAMP standard curve performed in parallel.
as §3

[3] = target: T1, RAMP2-CLR (AM1 receptor); test: (Ca^2+)i mobilization, HEK-293 cells, RAMP2 + CLR; conditions: mean ± S.E., n = 5
Description: as §1, §2, §3

[4] = target: T2, RAMP1-CLR (CGRP receptor) (Homo sapiens, UniProt O60894+Q16602); test: S. cerevisiae growth assay, GPA1/Gαi chimera, RAMP1 + CLR
T2 construct: FLAG; expressed in transfected cells; host or cells: HEK-293 or HEK-293S cells, transient transfection, 1:1 RAMP:CLR
Description: (§4) FIGURE 3. […] Reporter gene activity was determined following 20 h of stimulation.
(§5) General yeast procedures were performed as described previously ([22], [24]). The human CLR was introduced into yeast cells under the control of the PGK promoter using a plasmid containing ura3 (pDT-PGK). The three human RAMPs were introduced into yeast under the control of the GAPDH promoter using plasmids containing leu2 (p425-GPD) ([25]). S. cerevisiae dual reporter strains expressing chimeras of yeast GPA1(1–467) (GPA1/Gα) with the five C-terminal amino acids of […] human G proteins representing Gαs, Gα16, Gαq, Gαo, Gαi1/2, Gαi3, Gαz, Gα12, Gα13, and Gα14 (MMY84–MMY93) were used in this study ([52]). […] Receptor signaling was measured using the yeast growth assay as described previously ([24]). […] A fluorescein signal was detected as an increase in fluorescence (excitation wavelength = 485 nm, emission wavelength = 535 nm) as a measure of growth. Different concentrations of ligand (0.01 nM–100 μM) were assayed using 96-well plates, and fluorescence was detected using a Tecan Infinite M200 microplate reader (Tecan Ultra Evolution, Reading, UK) or a Mithras LB 940 microplate reader (Berthold Technologies, Harpenden, UK) for 20 h. […]

[5] = target: T1, RAMP2-CLR (AM1 receptor); test: S. cerevisiae growth assay, GPA1/Gαi chimera, RAMP2 + CLR
Description: as §4, §5

CSCC[C@H](NC(=O)[C@H](CC(C)C)NC(=O)[C@H](CCC(N)=O)NC(=O)[C@H](Cc1c[nH]c2ccccc12)NC(=O)[C@H](CC(C)C)NC(=O)[C@H](CCCNC(=N)N)NC(=O)[C@H](Cc1c[nH]cn1)NC(=O)[C@H](CO)NC(=O)[C@H](CC(C)C)NC(=O)[C@H](CC(N)=O)NC(=O)[C@H](CCC(N)=O)NC(=O)[C@@H](NC(=O)[C@H](CCC(N)=O)NC(=O)[C@@H]1CSSC[C@H](NC(=O)CNC(=O)[C@@H](NC(=O)[C@H](CCCNC(=N)N)NC(=O)[C@H](CC(C)C)NC(=O)[C@H](CC(C)C)NC(=O)[C@H](CCC(N)=O)NC(=O)[C@H](C)NC(=O)[C@H](CCC(N)=O)NC(=O)[C@@H](N)[C@@H](C)O)C(C)C)C(=O)N[C@@H](C(C)C)C(=O)N[C@@H](CC(C)C)C(=O)NCC(=O)N[C@@H]([C@@H](C)O)C(=O)N1)C(C)C)C(=O)NCC(=O)N1CCC[C@H]1C(=O)N[C@@H](C)C(=O)NCC(=O)N[C@@H](CCCNC(=N)N)C(=O)N[C@@H](CCC(N)=O)C(=O)N[C@@H](CC(=O)O)C(=O)N[C@@H](CO)C(=O)N[C@@H](C)C(=O)N1CCC[C@H]1C(=O)N[C@H](C(=O)N[C@@H](CC(=O)O)C(=O)N1CCC[C@H]1C(=O)N[C@@H](CO)C(=O)N[C@@H](CO)C(=O)N1CCC[C@H]1C(=O)N[C@@H](Cc1c[nH]cn1)C(=O)N[C@@H](CO)C(=O)N[C@@H](Cc1ccc(O)cc1)C(N)=O)C(C)C [AM2, adrenomedullin 2]
EC50 ([1]; Fluo-4/AM, peak over 120 s, n = 5): 38 nM
Kd ([1]; operational model, n = 5, read-out: pKa (negative log of equilibrium dissociation constant) (converted)): 46.8 nM
EC50 [2]: 2.69 nM
EC50 ([3]; HEK-293, Fluo-4/AM, peak over 120 s): 38.9 nM
Kd ([3]; operational model, HEK-293, read-out: pKa (negative log of equilibrium dissociation constant) (converted)): 70.8 nM
EC50 [4]: 2.69 nM
Kd [4]: 5.75 nM
EC50 [5]: 3.8 nM
Kd [5]: 5.01 nM

From PMC5063977 (The Journal of Biological Chemistry, 2016)
